This note sets out measurements from patent US10301371B2, “Cyclic monomer and dimer peptides having integrin antagonist activity” (Protagonist Therapeutics, Inc., priority 2014, dated 2019).

SMILES strings stand for the structures. pIC50: −log10 of the molar value.

The first experiment concerns the target T1, rh integrin α4β7 (Homo sapiens, UniProt P13612+P26010, DEL724-798).
T1 construct: purchased R&D Systems 5397-A30
T1 sequence (P13612 34-977 limits assumed): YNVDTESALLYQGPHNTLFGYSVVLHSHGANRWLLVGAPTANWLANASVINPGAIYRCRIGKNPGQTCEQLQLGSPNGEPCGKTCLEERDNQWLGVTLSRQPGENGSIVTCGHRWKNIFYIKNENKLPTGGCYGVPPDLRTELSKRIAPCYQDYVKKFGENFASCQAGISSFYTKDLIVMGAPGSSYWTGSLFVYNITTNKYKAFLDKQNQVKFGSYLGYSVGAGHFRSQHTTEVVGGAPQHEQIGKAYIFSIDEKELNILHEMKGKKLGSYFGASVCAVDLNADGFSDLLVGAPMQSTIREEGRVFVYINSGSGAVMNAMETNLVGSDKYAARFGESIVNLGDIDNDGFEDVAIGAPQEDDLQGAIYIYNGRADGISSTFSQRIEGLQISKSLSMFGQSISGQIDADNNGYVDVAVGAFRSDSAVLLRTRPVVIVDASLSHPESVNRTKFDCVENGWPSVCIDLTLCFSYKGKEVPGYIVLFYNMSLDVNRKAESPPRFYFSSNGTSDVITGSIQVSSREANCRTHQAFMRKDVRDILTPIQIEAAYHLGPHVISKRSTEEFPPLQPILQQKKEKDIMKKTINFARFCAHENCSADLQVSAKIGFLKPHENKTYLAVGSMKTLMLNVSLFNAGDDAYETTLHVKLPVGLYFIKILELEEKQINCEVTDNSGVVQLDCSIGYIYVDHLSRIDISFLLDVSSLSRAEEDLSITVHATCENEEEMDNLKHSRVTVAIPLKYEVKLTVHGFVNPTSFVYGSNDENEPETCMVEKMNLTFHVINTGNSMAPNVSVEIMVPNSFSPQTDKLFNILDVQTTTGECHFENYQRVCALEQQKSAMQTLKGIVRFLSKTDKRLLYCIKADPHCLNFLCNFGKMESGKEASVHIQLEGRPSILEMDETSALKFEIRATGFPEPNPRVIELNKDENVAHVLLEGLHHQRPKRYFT
T1 sequence (P26010 20-723 limits assumed): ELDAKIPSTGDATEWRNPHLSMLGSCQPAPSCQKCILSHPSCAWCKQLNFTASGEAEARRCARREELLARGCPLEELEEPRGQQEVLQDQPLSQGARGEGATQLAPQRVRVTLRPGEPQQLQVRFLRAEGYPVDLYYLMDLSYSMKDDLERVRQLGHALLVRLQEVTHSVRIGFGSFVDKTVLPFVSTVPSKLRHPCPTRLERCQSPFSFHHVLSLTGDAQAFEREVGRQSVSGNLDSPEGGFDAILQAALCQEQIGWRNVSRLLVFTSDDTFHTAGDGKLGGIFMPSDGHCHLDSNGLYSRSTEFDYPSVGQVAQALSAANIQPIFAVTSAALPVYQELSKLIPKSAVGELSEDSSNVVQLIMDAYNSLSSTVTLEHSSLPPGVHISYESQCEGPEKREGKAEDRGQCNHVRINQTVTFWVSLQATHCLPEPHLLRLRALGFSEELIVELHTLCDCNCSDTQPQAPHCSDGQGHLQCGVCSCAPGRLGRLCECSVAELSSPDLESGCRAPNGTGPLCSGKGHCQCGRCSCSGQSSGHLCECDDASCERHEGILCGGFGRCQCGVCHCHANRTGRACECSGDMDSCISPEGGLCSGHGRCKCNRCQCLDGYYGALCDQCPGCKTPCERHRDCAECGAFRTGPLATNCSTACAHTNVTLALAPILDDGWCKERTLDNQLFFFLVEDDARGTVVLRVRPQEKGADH
The experiment is described as follows: α4β7-MAdCAM Competition ELISA. Type of experiment: binding. As to conditions: ELISA a4b7 (nM), potency. Here is the method: α4β7-MAdCAM Competition ELISA
A nickel coated plate (Pierce #15442) is coated with rh integrin α4β7 (R&D Systems #5397-A30) at 800 ng/well and incubated at room temperature with shaking for 1 hr. The solution iss then remove by shaking and blocked with assay buffer (50 mM Tris-HCl pH7.6, 150 mM NaCl, 1 mM MnCl2 or MgCl2, 0.05% Tween-20 and 0.5% BSA) at 250 ul/well. The plate was then incubated at room temperature for 1 hr. Each well was washed 3 times with wash buffer (50 mM Tris-HCl pH7.6, 100 mM NaCl, 1 mM MnCl2 or MgCl2, 0.05% Tween-20). To each well was added 25 ul of a serial dilution (3-fold dilutions in assay buffer) of peptides starting at 20 μM. 25 ul of recombinant human MAdCAM-1 (R&D Systems #6056-MC) was then added to each well at a fixed concentration 20 nM. The final starting peptide concentration was 10 μM, and the final MAdCAM-1 concentration was 10 nM. The plates were then incubated at room temperature for 1 hr to reach binding equilibrium. The wells were then washed three times with wash buffer. 50 ul of mouse antihuman IgG1-HRP (Invitrogen # A10648) diluted in 1:2000 in assay buffer was then added to each well. The wells are incubated at room temperature for 45 min with shaking. The wells were then washed 3 times with wash buffer. 100 ul of TMB were then added to each well and closely observe during development time. The reaction was stopped with 2N H2SO4 and absorbance was read at 450 nm.
In general terms: In an ELISA, binding on a coated surface is turned into a signal by an enzyme label.
As for `CC(C)C[C@@H]1NC(=O)[C@H]([C@@H](C)O)NC(=O)[C@H](CC(=O)O)NC(=O)[C@H](CO)NC(=O)[C@H](CCCNC(=N)N)N(C)C(=O)[C@@H](CC(C)C)NC(=O)[C@@H](C)NC1=O` [compound 496], the IC50 was > 1000 nM.

For `CC(C)C[C@@H]1NC(=O)[C@H]([C@@H](C)O)NC(=O)[C@H](CC(=O)O)NC(=O)[C@H](CO)NC(=O)[C@H](CCCNC(=N)N)N(C)C(=O)[C@@H](CC(C)C)NC(=O)[C@@H](C)NC1=O` [compound 497], the IC50 was 100 to 1000 nM.

As for `CC(C)C[C@@H]1NC(=O)[C@H]([C@@H](C)O)NC(=O)[C@H](CC(=O)O)NC(=O)[C@H](CO)NC(=O)[C@H](CCCNC(=N)N)N(C)C(=O)[C@@H](CCCNC(=N)N)NC(=O)[C@@H](C)NC1=O` [compound 500], the IC50 was > 1000 nM.

For `CC(C)C[C@@H]1NC(=O)[C@H]([C@@H](C)O)NC(=O)[C@H](CC(=O)O)NC(=O)[C@H](CO)NC(=O)[C@H](CCCNC(=N)N)N(C)C(=O)[C@@H](CCCNC(=N)N)NC(=O)[C@@H](C)NC1=O` [compound 501], the half-inhibitory concentration (IC50) fell in the range of 100 to 1000 nM.

Still in this experiment, the particulars now being: potency, read-out: ELISA a4b7.
Take `CC(C)C[C@@H]1NC(=O)[C@H]([C@@H](C)O)NC(=O)[C@H](CC(=O)O)NC(=O)[C@H](CO)NC(=O)[C@H](CCCNC(=N)N)N(C)C(=O)[C@@H](C)NC(=O)[C@@H](CC(N)=O)NC1=O` [compound 478]: the pIC50 was < 6.00.

As for `CC(C)C[C@@H]1NC(=O)[C@H]([C@@H](C)O)NC(=O)[C@H](CC(=O)O)NC(=O)[C@H](CO)NC(=O)[C@H](CCCNC(=N)N)N(C)C(=O)[C@@H](Cc2c[nH]cn2)NC(=O)[C@@H](C)NC1=O` [compound 480], the pIC50 is < 6.00.

As for `CC(C)C[C@@H]1NC(=O)[C@H]([C@@H](C)O)NC(=O)[C@H](CC(=O)O)NC(=O)[C@H](CO)NC(=O)[C@H](CCCNC(=N)N)N(C)C(=O)[C@@H](Cc2c[nH]cn2)NC(=O)[C@@H](C)NC1=O` [compound 481], the pIC50 was 6.00 to 7.00.

Take `CC(C)C[C@@H]1NC(=O)[C@H]([C@@H](C)O)NC(=O)[C@H](CC(=O)O)NC(=O)[C@H](CO)NC(=O)[C@H](CCCNC(=N)N)N(C)C(=O)[C@@H](C)NC(=O)[C@@H](CCC(=O)O)NC1=O` [compound 482]: the pIC50 is < 6.00.

Regarding `CC(C)C[C@@H]1NC(=O)[C@H]([C@@H](C)O)NC(=O)[C@H](CC(=O)O)NC(=O)[C@H](CO)NC(=O)[C@H](CCCNC(=N)N)N(C)C(=O)[C@@H](CCCCN)NC(=O)[C@@H](C)NC1=O` [compound 485], the pIC50 was < 6.00.

As to `CC(C)C[C@@H]1NC(=O)[C@H]([C@@H](C)O)NC(=O)[C@H](CC(=O)O)NC(=O)[C@H](CO)NC(=O)[C@H](CCCNC(=N)N)N(C)C(=O)[C@@H](CCCCN)NC(=O)[C@@H](C)NC1=O` [compound 487], the pIC50 is 6.00 to 7.00.

On to `CC(C)C[C@@H]1NC(=O)[C@H]([C@@H](C)O)NC(=O)[C@H](CC(=O)O)NC(=O)[C@H](CO)NC(=O)[C@H](CCCNC(=N)N)N(C)C(=O)[C@@H](C)NC(=O)[C@@H](Cc2c[nH]cn2)NC1=O` [compound 490], for which the pIC50 was < 6.00.

`CC(C)C[C@@H]1NC(=O)[C@H]([C@@H](C)O)NC(=O)[C@H](CC(=O)O)NC(=O)[C@H](CO)NC(=O)[C@H](CCCNC(=N)N)N(C)C(=O)[C@@H](C)NC(=O)[C@@H](Cc2c[nH]cn2)NC1=O` [compound 491]: the pIC50 is 6.00 to 7.00.

As to `CC(C)C[C@@H]1NC(=O)[C@H]([C@@H](C)O)NC(=O)[C@H](CC(=O)O)NC(=O)[C@H](CO)NC(=O)[C@H](CCCNC(=N)N)N(C)C(=O)[C@@H](C)NC(=O)[C@@H](Cc2ccccc2)NC1=O` [compound 492], the pIC50 was < 6.00.

Regarding `CC(C)C[C@@H]1NC(=O)[C@H]([C@@H](C)O)NC(=O)[C@H](CC(=O)O)NC(=O)[C@H](CO)NC(=O)[C@H](CCCNC(=N)N)N(C)C(=O)[C@@H](C)NC(=O)[C@@H](Cc2ccccc2)NC1=O` [compound 493], the pIC50 is 6.00 to 7.00.

Regarding `CC(C)C[C@@H]1NC(=O)[C@H]([C@@H](C)O)NC(=O)[C@H](CC(=O)O)NC(=O)[C@H](CO)NC(=O)[C@H](CCCNC(=N)N)N(C)C(=O)[C@@H](Cc2ccccc2)NC(=O)[C@@H](C)NC1=O` [compound 494], the pIC50 is < 6.00.

`CC(C)C[C@@H]1NC(=O)[C@H]([C@@H](C)O)NC(=O)[C@H](CC(=O)O)NC(=O)[C@H](CO)NC(=O)[C@H](CCCNC(=N)N)N(C)C(=O)[C@H]2CCCN2C(=O)[C@@H](C)NC1=O` [compound 498]: the pIC50 is < 6.00.

For the compound `CC(C)C[C@@H]1NC(=O)[C@H]([C@@H](C)O)NC(=O)[C@H](CC(=O)O)NC(=O)[C@H](CO)NC(=O)[C@H](CCCNC(=N)N)N(C)C(=O)[C@H]2CCCN2C(=O)[C@@H](C)NC1=O` [compound 499], the pIC50 is 6.00 to 7.00.

For `CC(C)C[C@@H]1NC(=O)[C@H]([C@@H](C)O)NC(=O)[C@H](CC(=O)O)NC(=O)[C@H](CO)NC(=O)[C@H](CCCNC(=N)N)N(C)C(=O)[C@H](C)NC(=O)[C@@H](C)NC1=O` [compound 502], the pIC50 is < 6.00.

In the case of `CC(C)C[C@@H]1NC(=O)[C@H]([C@@H](C)O)NC(=O)[C@H](CC(=O)O)NC(=O)[C@H](CO)NC(=O)[C@H](CCCNC(=N)N)N(C)C(=O)[C@H](C)NC(=O)[C@@H](CCCCN)NC1=O` [compound 503], the pIC50 is < 6.00.

Consider `CC(C)C[C@@H]1NC(=O)[C@H]([C@@H](C)O)NC(=O)[C@H](CC(=O)O)NC(=O)[C@H](CO)NC(=O)[C@H](CCCNC(=N)N)N(C)C(=O)[C@@H](C)NC(=O)[C@@H](C)NC(=O)[C@H](C)NC1=O` [compound 504], for which the pIC50 was < 6.00.

One may read the IC50 as the concentration at which inhibition is half-maximal.
